The list shows a part of the results. Potency and affinity values are given separately. Calls of active or inactive are those of the source. Cut-off read from the data, not from the text of the source: active = inhibition above about 50%; inactive = the rest.
What follows are compounds tested against Kappa-type opioid receptor (Homo sapiens) (UniProt P41145) (assay: kappa opioid receptor blockers – cell-based, luminescence, uHTS (AID 1778)). Conditions: KOR beta-arrestin recruitment, antagonist mode, at 10 µM, active compounds read high.

By UniProt entry, the sequences of proteins in these tests, tags left out. Where a name states a change or a piece, a line headed by the entry shows the natural chain unless it says otherwise.
UniProt P41145: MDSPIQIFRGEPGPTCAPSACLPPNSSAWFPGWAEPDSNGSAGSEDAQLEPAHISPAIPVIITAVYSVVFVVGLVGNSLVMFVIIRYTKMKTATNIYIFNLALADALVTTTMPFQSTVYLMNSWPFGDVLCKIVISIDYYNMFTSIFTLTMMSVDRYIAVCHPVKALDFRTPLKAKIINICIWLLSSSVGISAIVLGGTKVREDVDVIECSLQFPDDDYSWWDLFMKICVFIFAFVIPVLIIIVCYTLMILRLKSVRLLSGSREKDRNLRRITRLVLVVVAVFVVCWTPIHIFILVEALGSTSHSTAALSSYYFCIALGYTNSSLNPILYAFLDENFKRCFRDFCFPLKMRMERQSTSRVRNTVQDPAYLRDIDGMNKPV

Q: With CN1CCN(c2nc3c(c(=O)n(C)c(=O)n3C)n2CC(N)=O)CC1 as the compound, how does the inhibition read?
A: Its inhibition is inactive: -49.6%.

Q: For CN1CCC2(CC1)NC(=O)c1ccccc1N2, which inhibition is on record?
A: The inhibition was inactive: -30.2%.

Q: With O=[N+]([O-])c1cccc(NC2=NCC(CBr)S2)c1 (configuration not stated) as the compound, how does the inhibition read?
A: Its inhibition is inactive: 20.8%.

Q: With COc1ccc(Cc2nc3ccccc3n2CC(=O)N/N=C/c2ccc(O)cc2)cc1OC as the compound, how does the inhibition read?
A: Its inhibition is inactive: -6.1%.

Q: How did the inhibition turn out when Cc1ccc2c(c1)C1CN(C)CCC1N2C(=O)COc1ccccc1F (configuration not stated) was run?
A: The inhibition was inactive: 2.7%.

Q: CCOC(=O)Nc1ccc([As](=O)(O)O)c(O)c1 was tested. Which inhibition did it give?
A: The inhibition was inactive: 11.4%.

Q: For Nc1ncnc2c1ncn2CCNCCc1ccccc1, which inhibition is on record?
A: The inhibition was inactive: 6.5%.

Q: Which inhibition does the source give for O=C(Cn1c(C(F)(F)F)nc2ccccc21)NCCCN1CCOCC1 here?
A: The inhibition was inactive: -17.2%.

Q: For COc1ccc(S(=O)(=O)N2CCn3c2nc2ccccc23)cc1, which inhibition is on record?
A: Its inhibition is inactive: 15.2%.

Q: For Cc1ccc(N(CC(=O)N2CCn3c2nc2ccccc23)S(=O)(=O)c2c(C)n[nH]c2C)cc1, which inhibition is on record?
A: Its inhibition is inactive: 4.1%.

Q: Which inhibition does the source give for CC(C)C[C@H](NC(=O)N1CCn2c1nc1ccccc12)C(=O)NCCc1ccccc1 here?
A: The inhibition was inactive: -41.8%.

Q: With Cc1cc(C)cc(N(CC(=O)N2CCn3c2nc2ccccc23)S(=O)(=O)c2c(C)noc2C)c1 as the compound, how does the inhibition read?
A: The inhibition was inactive: -13%.

Q: With Cc1ccc2c(c1)C1CN(C)CCC1N2C(=O)c1cccs1 (configuration not stated) as the compound, how does the inhibition read?
A: Its inhibition is inactive: 21.2%.

Q: For Cc1ccc2c(c1)C1CN(C)CCC1N2C(=O)COc1ccc(N(C)C(=O)C(C)(C)C)cc1 (configuration not stated), which inhibition is on record?
A: The inhibition was inactive: 4.2%.

Q: For Nc1ncnc2c1ncn2CCN1CCOCC1, which inhibition is on record?
A: The inhibition was inactive: 15.3%.

Q: CC(C)[C@H](NC(=O)N1CCn2c1nc1ccccc12)C(=O)NC1CCCCC1 was tested. Which inhibition did it give?
A: Its inhibition is inactive: -51.8%.

Q: How did the inhibition turn out when CCN(CC)CCNC(=S)N1CCn2c(nc3ccccc32)C1 was run?
A: The inhibition was inactive: 28.6%.

Q: How did the inhibition turn out when CC1c2nc3ccccc3n2C(CC(=O)NCc2ccccn2)C(=O)N1Cc1ccccc1 (configuration not stated) was run?
A: Its inhibition is inactive: 16.3%.

Q: CC(=O)Nc1ccc(C(=O)CSc2nc3ccccc3n2CC(=O)N2CCCC2)cc1 was tested. Which inhibition did it give?
A: The inhibition was inactive: -11%.

Q: For CC(C)[C@H](NC(=O)N1CCn2c1nc1ccccc12)C(=O)N1CCCCC1, which inhibition is on record?
A: Its inhibition is inactive: -21.7%.

Q: For CCCNC(=O)CC1C(=O)N(Cc2ccccc2)C(C)c2nc3ccccc3n21 (configuration not stated), which inhibition is on record?
A: The inhibition was inactive: -8%.

Q: Which inhibition does the source give for COc1ccc(/C=N/c2nc3ccccc3n2CCN2CCCCC2)cc1OC here?
A: The inhibition was inactive: -30.9%.

Q: For CC(=O)Nc1ccc(NC(=O)Cn2c(CC(=O)N3CCCC3)nc3ccccc32)cc1, which inhibition is on record?
A: Its inhibition is inactive: 10%.

Q: With Cc1cc(SC(NC(=O)c2ccccc2)C(Cl)(Cl)Cl)nc(C(C)C)n1 (configuration not stated) as the compound, how does the inhibition read?
A: The inhibition was inactive: -6.2%.

Q: With COc1ccc(OCC(=O)N2c3ccc(C)cc3C3CN(C)CCC32)cc1 (configuration not stated) as the compound, how does the inhibition read?
A: Its inhibition is inactive: -30.7%.

Q: With O=C(CCCCCNC(=O)N1CCn2c1nc1ccccc12)NCCc1ccccc1 as the compound, how does the inhibition read?
A: Its inhibition is inactive: -37.9%.

Q: For Cc1ccc2c(c1)[C@@H]1CN(C)CC[C@@H]1N2S(=O)(=O)c1ccc([N+](=O)[O-])cc1, which inhibition is on record?
A: Its inhibition is inactive: -6.5%.

Q: Which inhibition does the source give for Cn1c(=O)c2c(ncn2CC(=O)N2CCc3ccccc3C2)n(C)c1=O here?
A: The inhibition was inactive: 3.9%.

Q: Which inhibition does the source give for CCC[n+]1cn(/C(C(=S)Nc2cccc(Cl)c2C)=C(/[O-])c2ccc(OC)c(OC)c2)c2ccccc21 here?
A: Its inhibition is inactive: 11.2%.

Q: Which inhibition does the source give for Cc1ccc(NC(=O)Cn2c(=S)[nH]c3ccccc32)cc1 here?
A: Its inhibition is inactive: -27.4%.

Q: Which inhibition does the source give for Cn1c(=O)c2c(ncn2CC(=O)NCc2cccnc2)n(C)c1=O here?
A: Its inhibition is inactive: 17%.

Q: Cn1c(=O)[nH]c(=O)c2c1ncn2CCN1CCCCC1 was tested. Which inhibition did it give?
A: Its inhibition is inactive: -20.7%.

Q: For CCOC(=O)Nc1cccc([As](=O)(O)O)c1, which inhibition is on record?
A: Its inhibition is inactive: 4.8%.

Q: With NNC(=O)Cn1c(-c2ccccn2)nc2ccccc21 as the compound, how does the inhibition read?
A: Its inhibition is inactive: -1.6%.

Q: COc1cc(NC(=O)[C@H](C)NC(=O)N2CCn3c2nc2ccccc23)cc(OC)c1 was tested. Which inhibition did it give?
A: Its inhibition is inactive: -12.1%.

Q: O=C(Cn1c(CCCO)nc2ccccc21)Nc1ccccc1-c1ccccc1 was tested. Which inhibition did it give?
A: Its inhibition is inactive: -27.8%.

Q: How did the inhibition turn out when C/C(=N\NC(=O)Cn1c(C)nc2ccccc21)c1cccs1 was run?
A: Its inhibition is inactive: 27.4%.

Q: For CC(C)(C)NC(=O)Cn1c(SCC(=O)NC2CCCCC2)nc2ccccc21, which inhibition is on record?
A: Its inhibition is inactive: 1.3%.

Q: With CCCNC(=O)Cn1c(=O)n(C)c2ccccc21 as the compound, how does the inhibition read?
A: The inhibition was inactive: 22.6%.

Q: With CC1CN(Cc2nc3c(c(=O)n(C)c(=O)n3C)n2CCN2CCOCC2)CC(C)O1 (configuration not stated) as the compound, how does the inhibition read?
A: The inhibition was inactive: -19.8%.

Q: How did the inhibition turn out when CCNC(=S)N1CCn2c(nc3ccccc32)C1 was run?
A: The inhibition was inactive: -5.2%.

Q: With Cc1cc(SC(NC=O)C(Cl)(Cl)Cl)ncn1 (configuration not stated) as the compound, how does the inhibition read?
A: The inhibition was inactive: -28.2%.

Q: Which inhibition does the source give for CCc1nc2ccccc2n1CC(=O)N1CCN(S(=O)(=O)c2cccc(C(F)(F)F)c2)CC1 here?
A: The inhibition was inactive: -10.7%.

Q: COc1ccccc1C(=O)OCCNC(=O)Cn1cnc2c1c(=O)n(C)c(=O)n2C was tested. Which inhibition did it give?
A: The inhibition was inactive: -2.7%.

Q: How did the inhibition turn out when Cn1c(=O)n(Cc2ccccc2)c(=O)c2c1nc1n2CCN1Cc1ccco1 was run?
A: The inhibition was inactive: 13.9%.

Q: Cn1c(=O)c2c(ncn2CC(=O)N/N=C/c2ccc(Br)s2)n(C)c1=O was tested. Which inhibition did it give?
A: Its inhibition is inactive: -22.6%.

Q: Which inhibition does the source give for COCCN1CCn2c(nc3cc(NC(=O)c4ccc(OC)cc4)ccc32)C1 here?
A: Its inhibition is inactive: -21.2%.

Q: How did the inhibition turn out when CCC(C)c1ccc2oc(-c3ccc(NC(=O)Cn4cnc5c(=O)n(C)c(=O)n(C)c54)cc3)nc2c1 (configuration not stated) was run?
A: Its inhibition is inactive: -22.3%.

Q: For CCS(=O)(=O)c1nc2ccccc2n1CC(=O)N1CCOCC1, which inhibition is on record?
A: The inhibition was inactive: -27.5%.

Q: CCC(=O)Nc1nnc(/C=C/c2ccccc2)s1 was tested. Which inhibition did it give?
A: The inhibition was inactive: -1.5%.

Q: For O=C(Cn1c(CC(=O)N2CCOCC2)nc2ccccc21)Nc1ccc2c(c1)OC(F)(F)O2, which inhibition is on record?
A: Its inhibition is inactive: 3.9%.

Q: For O=[N+]([O-])c1ccc(Nc2ccc(Oc3ccc([N+](=O)[O-])cc3[N+](=O)[O-])cc2)c([N+](=O)[O-])c1, which inhibition is on record?
A: Its inhibition is inactive: 10.4%.

Q: N=c1n(CCN2CCCCC2)c2ccccc2n1CC(=O)c1cccs1 was tested. Which inhibition did it give?
A: Its inhibition is inactive: -3.4%.

Q: Which inhibition does the source give for Cn1c(=O)c2c(ncn2CC(=O)N/N=C/C=C\c2ccccc2[N+](=O)[O-])n(C)c1=O here?
A: The inhibition was inactive: 19.5%.

Q: Which inhibition does the source give for COP1(=S)c2c(C)nn(CCC#N)c2N=C(c2ccc(F)cc2)N1C (configuration not stated) here?
A: The inhibition was inactive: -82.6%.

Q: For Cc1ccc(C)c(S(=O)(=O)N2CCN(C(=O)Cn3cnc4c3c(=O)n(C)c(=O)n4C)CC2)c1, which inhibition is on record?
A: Its inhibition is inactive: 7%.

Q: With O=C(Nc1ccccc1C(F)(F)F)N1CCC(n2c(=O)[nH]c3ccccc32)CC1 as the compound, how does the inhibition read?
A: Its inhibition is inactive: -27.7%.

— PubChem BioAssay AID1778 (Sanford-Burnham Center for Chemical Genomics, 2009)
